From publication PMC9414551 (Pharmaceuticals, 2022)

System: NMDAR
Settings: rat cortical membranes; for IC50: [3H]TCP 4 nM; for Ki: [3H]TCP, Cheng and Prusoff

## C[C@]12N[C@H](Cc3ccccc31)c1ccccc12 [MK-801, dizocilpine]
  IC50: 3.52 nM
  Ki: 2.39 nM

## CC12CC3CC(C)(C1)CC(N)(C3)C2 [Memantine, memantine]
  IC50: 790 nM
  Ki: 530 nM
